For one test, the target named is D(1A) dopamine receptor (Rattus norvegicus, UniProt P18901).
The target of test [1] is T1, D(2) dopamine receptor (Homo sapiens, UniProt P14416). In words: Antagonist activity at human dopamine D2L receptor expressed in CHO cells by [35S]GTPgammaS binding assay. Format: functional, cell-based. A general note: GTPγS resists hydrolysis and so accumulates on activated G proteins.
In test [2] the target is T1, D(2) dopamine receptor. In words: Antagonist activity at human dopamine D2S receptor expressed in CHO cells by [35S]GTPgammaS binding assay. It counts as functional, cell-based.

Chains of the proteins cited; added tags and fusions are not shown.
UniProt P18901, whole entry: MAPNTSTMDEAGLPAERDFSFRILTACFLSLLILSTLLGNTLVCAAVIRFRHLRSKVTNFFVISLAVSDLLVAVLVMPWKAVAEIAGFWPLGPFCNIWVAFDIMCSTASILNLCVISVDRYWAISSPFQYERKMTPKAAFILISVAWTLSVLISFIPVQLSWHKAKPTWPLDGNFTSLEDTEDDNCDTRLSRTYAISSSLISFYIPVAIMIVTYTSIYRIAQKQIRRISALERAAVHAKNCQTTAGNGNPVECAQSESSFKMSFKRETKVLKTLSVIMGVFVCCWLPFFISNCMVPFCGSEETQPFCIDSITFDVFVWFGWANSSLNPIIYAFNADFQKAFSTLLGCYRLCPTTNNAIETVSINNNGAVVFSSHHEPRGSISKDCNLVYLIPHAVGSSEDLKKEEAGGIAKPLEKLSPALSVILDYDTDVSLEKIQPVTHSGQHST
UniProt P14416, whole entry: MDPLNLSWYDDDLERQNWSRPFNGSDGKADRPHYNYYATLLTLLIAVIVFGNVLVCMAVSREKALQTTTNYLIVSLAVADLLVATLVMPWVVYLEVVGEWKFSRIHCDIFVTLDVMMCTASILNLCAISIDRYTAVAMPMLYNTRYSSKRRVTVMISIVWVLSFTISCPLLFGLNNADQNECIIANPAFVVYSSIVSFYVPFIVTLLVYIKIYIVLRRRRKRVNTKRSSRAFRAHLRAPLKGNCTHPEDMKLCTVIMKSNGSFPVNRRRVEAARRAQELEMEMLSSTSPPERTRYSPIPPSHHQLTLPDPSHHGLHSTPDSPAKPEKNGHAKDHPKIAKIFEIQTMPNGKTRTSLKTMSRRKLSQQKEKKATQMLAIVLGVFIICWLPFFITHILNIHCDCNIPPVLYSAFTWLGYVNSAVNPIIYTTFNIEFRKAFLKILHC

pIC50, pKi: −log10 of the molar value.

With `Cc1nc2n(c(=O)c1CCN1CCC(c3noc4cc(F)ccc34)CC1)CCCC2` [RISPERIDONE], the pKi – broadly, the Ki on a negative log10 scale, so that one unit is a factor of ten – at D(1A) dopamine receptor was 7.30.

For `Cc1cccc(N2CCN(CCCCNC(=O)c3cc4ccccc4o3)CC2)c1`, the pIC50 (commonly the IC50 on a negative log10 scale, so that one unit is a factor of ten) is 6.23 on D(2) dopamine receptor [1] and 5.91 on D(2) dopamine receptor [2].
